Measurements reported in ChEMBL document CHEMBL5576088, “Skin- and airway-deliverable TRPA1 inhibitor” (Bioorg Med Chem, 2024).

Protein sequences, listed by entry. Tags and fused reporters are not part of them.
UniProt Q9HBA0, whole entry: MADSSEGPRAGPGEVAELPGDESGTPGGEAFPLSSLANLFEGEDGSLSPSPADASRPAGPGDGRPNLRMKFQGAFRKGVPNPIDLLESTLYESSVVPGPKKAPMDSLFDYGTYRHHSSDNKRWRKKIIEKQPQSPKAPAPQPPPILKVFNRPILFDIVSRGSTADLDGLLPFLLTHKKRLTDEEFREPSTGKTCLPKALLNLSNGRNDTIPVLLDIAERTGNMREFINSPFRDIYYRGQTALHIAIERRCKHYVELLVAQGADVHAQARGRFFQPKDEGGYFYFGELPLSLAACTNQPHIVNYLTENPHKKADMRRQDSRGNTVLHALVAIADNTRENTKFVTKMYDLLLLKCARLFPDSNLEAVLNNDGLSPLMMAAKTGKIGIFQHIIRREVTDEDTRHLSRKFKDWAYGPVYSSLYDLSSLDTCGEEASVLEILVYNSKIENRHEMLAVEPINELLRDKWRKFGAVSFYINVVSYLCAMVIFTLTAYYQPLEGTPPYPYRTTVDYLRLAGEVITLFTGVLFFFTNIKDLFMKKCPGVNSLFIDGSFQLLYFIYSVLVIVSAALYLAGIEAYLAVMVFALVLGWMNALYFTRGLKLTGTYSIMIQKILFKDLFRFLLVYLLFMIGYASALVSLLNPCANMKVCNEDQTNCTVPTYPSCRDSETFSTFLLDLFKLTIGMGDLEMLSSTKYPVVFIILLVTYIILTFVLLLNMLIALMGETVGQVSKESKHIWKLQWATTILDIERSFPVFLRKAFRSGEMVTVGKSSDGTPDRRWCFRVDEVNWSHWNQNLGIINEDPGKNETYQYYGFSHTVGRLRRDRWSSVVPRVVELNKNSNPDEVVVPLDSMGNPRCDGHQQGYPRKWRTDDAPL

How the values were obtained:
[1] = target: T1, Transient receptor potential cation channel subfamily V member 3 (Homo sapiens) (UniProt Q8NET8); assay: Antagonist activity at human TRPV3 expressed in HEK293 cells assessed as inhibition of intracellular Ca2+ flux by Fluo4-AM dye based fluorescence analysis; type: cell-based
T1 sequence (whole entry): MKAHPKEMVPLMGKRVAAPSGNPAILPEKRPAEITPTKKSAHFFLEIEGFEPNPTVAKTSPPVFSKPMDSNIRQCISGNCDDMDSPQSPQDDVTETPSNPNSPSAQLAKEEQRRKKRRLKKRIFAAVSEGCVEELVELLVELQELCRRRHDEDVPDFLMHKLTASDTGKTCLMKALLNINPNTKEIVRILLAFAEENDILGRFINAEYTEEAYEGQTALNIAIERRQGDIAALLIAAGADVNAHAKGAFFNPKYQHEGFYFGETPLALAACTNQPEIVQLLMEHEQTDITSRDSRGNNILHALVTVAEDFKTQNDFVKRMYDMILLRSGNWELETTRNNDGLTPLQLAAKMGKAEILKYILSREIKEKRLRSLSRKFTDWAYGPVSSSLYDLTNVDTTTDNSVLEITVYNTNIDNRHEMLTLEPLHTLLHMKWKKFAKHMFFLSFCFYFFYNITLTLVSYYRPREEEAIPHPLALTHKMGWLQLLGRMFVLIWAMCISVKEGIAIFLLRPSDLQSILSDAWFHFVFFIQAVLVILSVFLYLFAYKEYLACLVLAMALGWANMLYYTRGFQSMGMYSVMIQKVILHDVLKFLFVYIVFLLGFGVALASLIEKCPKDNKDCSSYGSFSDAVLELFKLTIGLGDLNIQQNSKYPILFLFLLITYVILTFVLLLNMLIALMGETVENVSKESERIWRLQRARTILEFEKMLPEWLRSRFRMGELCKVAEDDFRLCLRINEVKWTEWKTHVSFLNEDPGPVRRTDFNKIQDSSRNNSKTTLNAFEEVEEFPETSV

[2] = target: Transient receptor potential cation channel subfamily V member 4 (Homo sapiens) (UniProt Q9HBA0); assay: Antagonist activity at human TRPV4 expressed in HEK293 cells assessed as inhibition of intracellular Ca2+ flux by Fluo4-AM dye based fluorescence analysis; type: cell-based

Activity [1]: inactive
Activity [2]: inactive
Structure (SMILES): CC(CO)CC(C)c1ccccc1 (mixture of isomers)

The source made the active and inactive calls. No cut-off for these calls is given here.
